Data from patent publication US5854004A, “Process for screening substances capable of modulating a receptor-dependent cellular signal transmission path” (Boehringer Ingleheim GmbH, priority 1991, dated 1998).

Amino acid sequences for entries named in this document (tags omitted).
UniProt P21452, whole entry: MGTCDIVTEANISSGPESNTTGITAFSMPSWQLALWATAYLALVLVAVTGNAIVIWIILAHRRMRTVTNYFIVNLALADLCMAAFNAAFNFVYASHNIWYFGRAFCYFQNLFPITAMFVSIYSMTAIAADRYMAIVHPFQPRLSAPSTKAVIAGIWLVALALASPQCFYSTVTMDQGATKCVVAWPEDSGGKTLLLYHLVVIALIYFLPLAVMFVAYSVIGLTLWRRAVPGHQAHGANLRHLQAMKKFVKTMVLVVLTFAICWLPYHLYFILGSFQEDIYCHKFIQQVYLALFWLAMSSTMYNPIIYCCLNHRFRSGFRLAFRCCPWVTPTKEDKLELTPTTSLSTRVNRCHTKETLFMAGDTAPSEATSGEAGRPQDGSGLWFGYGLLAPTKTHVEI

Target: human neurokinin 2-receptor (Homo sapiens, UniProt P21452)
Assay: Luciferase activity in NK2-test cell line A20/NK2-122
Conditions: dosage activity curves, FIG. 29A

relative effectiveness of the neurokinins: NKA>neuromedin K (NMK)>substance P (SP)
Substance: neurokinin A: neurokinin (Sigma), agonist at neurokinin 2-receptor
